{
  "source": "patent US20250283871A1",
  "about": "“COMPOSITIONS AND METHODS FOR MODULATING THE INTERACTION BETWEEN SS18-SSX FUSION ONCOPROTEIN AND NUCLEOSOMES” (Dana-Farber Cancer Institute, Inc., priority 2020, published 2025)",
  "key": {"[1]": {"target": "mammalian mononucleosomes (HEK293T, MNase digestion) read out by the histone H3 peptide H3K56me0 (human) (UniProt P68431)", "test": "MBP-SSX1 78aa pull-down of HEK293T mononucleosomes, targeted quantitative histone mass spectrometry; replicate MM05_E01"}, "[2]": {"target": "mammalian mononucleosomes (HEK293T, MNase digestion) read out by the histone H3 peptide H3K79me1 (human) (UniProt P68431)", "test": "MBP-SSX1 78aa pull-down of HEK293T mononucleosomes, targeted quantitative histone mass spectrometry; replicate MM05_E01"}, "[3]": {"target": "mammalian mononucleosomes (HEK293T, MNase digestion) read out by the histone H3 peptide H3K79me2 (human) (UniProt P68431)", "test": "MBP-SSX1 78aa pull-down of HEK293T mononucleosomes, targeted quantitative histone mass spectrometry; replicate MM05_E01"}, "[4]": {"target": "mammalian mononucleosomes (HEK293T, MNase) carrying histone H3 K56me0 (mammalian (HEK293T cells)) (UniProt P68431)", "test": "MBP-SSX1 78aa pull-down of HEK293T mononucleosomes, targeted quantitative histone MS; replicate 1 (MM04_D01)"}, "[5]": {"target": "HEK-293T mononucleosomes with histone H4(20to23)K20me1 (mammalian (HEK-293T cells)) (UniProt P62805)", "test": "MBP-SSX1 78aa pull-down of HEK293T mononucleosomes, targeted quantitative histone MS, replicate 1"}, "[6]": {"target": "HEK-293T mononucleosomes with histone H4(4to17)K5ac1K8ac1K16ac1me0 (mammalian (HEK-293T cells)) (UniProt P62805)", "test": "MBP-SSX1 78aa pull-down of HEK293T mononucleosomes, targeted quantitative histone MS, replicate 1"}, "[7]": {"target": "HEK-293T mononucleosomes with histone H4(4to17)K12ac1K16ac1me0 (mammalian (HEK-293T cells)) (UniProt P62805)", "test": "MBP-SSX1 78aa pull-down of HEK293T mononucleosomes, targeted quantitative histone MS, replicate 1"}, "[8]": {"target": "HEK-293T mononucleosomes with histone H4(4to17)K8ac1K12ac1me0 (mammalian (HEK-293T cells)) (UniProt P62805)", "test": "MBP-SSX1 78aa pull-down of HEK293T mononucleosomes, targeted quantitative histone MS, replicate 1"}, "[9]": {"target": "HEK-293T mononucleosomes with histone H4(4to17)K8ac1K12ac1K16ac1me0 (mammalian (HEK-293T cells)) (UniProt P62805)", "test": "MBP-SSX1 78aa pull-down of HEK293T mononucleosomes, targeted quantitative histone MS, replicate 1"}, "[10]": {"target": "HEK-293T mononucleosomes with histone H2A(4to11)K5ac1K9ac1 (mammalian (HEK-293T cells)) (UniProt P0C0S8)", "test": "MBP-SSX1 78aa pull-down of HEK293T mononucleosomes, targeted quantitative histone MS, replicate 1"}, "[11]": {"target": "HEK-293T mononucleosomes with histone H4(4to17)K5ac1K8ac1K12ac1K16ac1me0 (mammalian (HEK-293T cells)) (UniProt P62805)", "test": "MBP-SSX1 78aa pull-down of HEK293T mononucleosomes, targeted quantitative histone MS, replicate 1"}, "[12]": {"target": "HEK-293T mononucleosomes with histone H3K9me3S10ph1K14ac0 (mammalian (HEK-293T cells)) (UniProt P68431)", "test": "MBP-SSX1 78aa pull-down of HEK293T mononucleosomes, targeted quantitative histone MS, replicate 1"}, "[13]": {"target": "HEK-293T mononucleosomes with histone H4(4to17)ac0me0 (mammalian (HEK-293T cells)) (UniProt P62805)", "test": "MBP-SSX1 78aa pull-down of HEK293T mononucleosomes, targeted quantitative histone MS, replicate 1"}, "[14]": {"target": "HEK-293T mononucleosomes with histone H3K9me2S10ph1K14ac1 (mammalian (HEK-293T cells)) (UniProt P68431)", "test": "MBP-SSX1 78aa pull-down of HEK293T mononucleosomes, targeted quantitative histone MS, replicate 1"}, "[15]": {"target": "HEK-293T mononucleosomes with histone H3K4me3 (mammalian (HEK-293T cells)) (UniProt P68431)", "test": "MBP-SSX1 78aa pull-down of HEK293T mononucleosomes, targeted quantitative histone MS, replicate 1"}, "[16]": {"target": "HEK-293T mononucleosomes with histone H3K9me1S10ph1K14ac1 (mammalian (HEK-293T cells)) (UniProt P68431)", "test": "MBP-SSX1 78aa pull-down of HEK293T mononucleosomes, targeted quantitative histone MS, replicate 1"}, "[17]": {"target": "HEK-293T mononucleosomes with histone H3K4me2 (mammalian (HEK-293T cells)) (UniProt P68431)", "test": "MBP-SSX1 78aa pull-down of HEK293T mononucleosomes, targeted quantitative histone MS, replicate 1"}, "[18]": {"target": "HEK-293T mononucleosomes with histone H4(20to23)K20me0 (mammalian (HEK-293T cells)) (UniProt P62805)", "test": "MBP-SSX1 78aa pull-down of HEK293T mononucleosomes, targeted quantitative histone MS, replicate 1"}, "[19]": {"target": "HEK-293T mononucleosomes with histone H4(20to23)K20me2 (mammalian (HEK-293T cells)) (UniProt P62805)", "test": "MBP-SSX1 78aa pull-down of HEK293T mononucleosomes, targeted quantitative histone MS, replicate 1"}, "[20]": {"target": "HEK-293T mononucleosomes with histone H2AZ(1to19)K4ac1 (mammalian (HEK-293T cells)) (UniProt P0C0S5)", "test": "MBP-SSX1 78aa pull-down of HEK293T mononucleosomes, targeted quantitative histone MS, replicate 1"}, "[21]": {"target": "HEK-293T mononucleosomes with histone H4(4to17)K12ac1me0 (mammalian (HEK-293T cells)) (UniProt P62805)", "test": "MBP-SSX1 78aa pull-down of HEK293T mononucleosomes, targeted quantitative histone MS, replicate 1"}, "[22]": {"target": "HEK-293T mononucleosomes with histone H3K9me2S10ph1K14ac0 (mammalian (HEK-293T cells)) (UniProt P68431)", "test": "MBP-SSX1 78aa pull-down of HEK293T mononucleosomes, targeted quantitative histone MS, replicate 1"}, "[23]": {"target": "HEK-293T mononucleosomes with histone H4(4to17)K5ac1K16ac1me0 (mammalian (HEK-293T cells)) (UniProt P62805)", "test": "MBP-SSX1 78aa pull-down of HEK293T mononucleosomes, targeted quantitative histone MS, replicate 1"}},
  "data": [
    {"substance": "MBP-SSX1 (78aa) (from UniProt P0AEX9 27-392)", "values": [
      {"measurement": "log2 histone peptide abundance (light/heavy) in the pull-down, normalised to the average of the pull-down input controls", "setting": "[1]", "value": 0.182, "unit": "log2 ratio"},
      {"measurement": "log2 histone peptide abundance (light/heavy) in the pull-down, normalised to the average of the pull-down input controls", "setting": "[2]", "value": 0.203, "unit": "log2 ratio"},
      {"measurement": "log2 histone peptide abundance (light/heavy) in the pull-down, normalised to the average of the pull-down input controls", "setting": "[3]", "value": 0.083, "unit": "log2 ratio"},
      {"measurement": "log2 normalized (Light/Heavy) intensity ratio of the histone peptide", "setting": "[4]", "value": 0.856, "unit": "log2"},
      {"measurement": "log2 (Light/Heavy) ratio normalized to average of pull down input controls", "setting": "[5]", "value": 0.211, "unit": "log2"},
      {"measurement": "log2 (Light/Heavy) ratio normalized to average of pull down input controls", "setting": "[6]", "value": -0.375, "unit": "log2"},
      {"measurement": "log2 (Light/Heavy) ratio normalized to average of pull down input controls", "setting": "[7]", "value": -0.204, "unit": "log2"},
      {"measurement": "log2 (Light/Heavy) ratio normalized to average of pull down input controls", "setting": "[8]", "value": -0.247, "unit": "log2"},
      {"measurement": "log2 (Light/Heavy) ratio normalized to average of pull down input controls", "setting": "[9]", "value": -0.258, "unit": "log2"},
      {"measurement": "log2 (Light/Heavy) ratio normalized to average of pull down input controls", "setting": "[10]", "value": 0.05, "unit": "log2"},
      {"measurement": "log2 (Light/Heavy) ratio normalized to average of pull down input controls", "setting": "[11]", "value": -0.599, "unit": "log2"},
      {"measurement": "log2 (Light/Heavy) ratio normalized to average of pull down input controls", "setting": "[12]", "value": 0.221, "unit": "log2"},
      {"measurement": "log2 (Light/Heavy) ratio normalized to average of pull down input controls", "setting": "[13]", "value": 0.203, "unit": "log2"},
      {"measurement": "log2 (Light/Heavy) ratio normalized to average of pull down input controls", "setting": "[14]", "value": 1.15, "unit": "log2"},
      {"measurement": "log2 (Light/Heavy) ratio normalized to average of pull down input controls", "setting": "[15]", "value": -0.25, "unit": "log2"},
      {"measurement": "log2 (Light/Heavy) ratio normalized to average of pull down input controls", "setting": "[16]", "value": 0.29, "unit": "log2"},
      {"measurement": "log2 (Light/Heavy) ratio normalized to average of pull down input controls", "setting": "[17]", "value": -0.102, "unit": "log2"},
      {"measurement": "log2 (Light/Heavy) ratio normalized to average of pull down input controls", "setting": "[18]", "value": 0.065, "unit": "log2"},
      {"measurement": "log2 (Light/Heavy) ratio normalized to average of pull down input controls", "setting": "[19]", "value": 0.024, "unit": "log2"},
      {"measurement": "log2 (Light/Heavy) ratio normalized to average of pull down input controls", "setting": "[20]", "value": -1.16, "unit": "log2"},
      {"measurement": "log2 (Light/Heavy) ratio normalized to average of pull down input controls", "setting": "[21]", "value": -0.156, "unit": "log2"},
      {"measurement": "log2 (Light/Heavy) ratio normalized to average of pull down input controls", "setting": "[22]", "value": 1.3, "unit": "log2"},
      {"measurement": "log2 (Light/Heavy) ratio normalized to average of pull down input controls", "setting": "[23]", "value": -0.412, "unit": "log2"}
    ]}
  ]
}
